Apparent affinities of Ab-14 variants for a coronavirus HR2 peptide

Antigen: PDVDLGDISGINAS, a 14-residue peptide of the SARS-CoV-2 spike HR2 region.

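The parent was found by panning a naive human phage display library on the peptide. Variants in AAYL49 differ from the parent at up to three CDR positions; double and triple changes were sampled at random. AlphaSeq pools MATa yeast showing the antibodies with MATalpha yeast showing the peptide. The frequency of each diploid, read from paired DNA barcodes, reflects how well the two displayed proteins bind. Each replicate has its own calibration line, from reference interactions of the BCL2 family. Each pool was mated in three replicate cultures.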

Each scFv is VH, a 15-residue (Gly4Ser)3 linker, VL, as in the parent Ab-14, and differs from it in the CDRs of the heavy chain only.
VH: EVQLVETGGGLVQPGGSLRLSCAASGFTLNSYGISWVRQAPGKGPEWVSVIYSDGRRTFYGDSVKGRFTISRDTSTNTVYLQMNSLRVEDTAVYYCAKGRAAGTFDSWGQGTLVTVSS
VL: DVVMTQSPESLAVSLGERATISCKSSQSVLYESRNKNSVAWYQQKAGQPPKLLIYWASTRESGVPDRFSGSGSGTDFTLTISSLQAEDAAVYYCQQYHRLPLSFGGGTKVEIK

Each variant is given by its three heavy chain CDRs, as the data file delimits them; those of the parent are GFTLNSYGIS, VIYSDGRRTFYGDSVK, GRAAGTFDS. Scale: log10 of Kd in nM, estimated from mating counts; low values are strong binders. Averages over replicates are reported, and they cover detected replicates only. "n.d." marks a missing value. The strain was present, yet no cells mated with the target were sequenced in that replicate, which points to weak or no binding.

| # | CDR-H1 | CDR-H2 | CDR-H3 | replicates, log10 nM | mean log10 Kd (nM) | empty controls |
|---|---|---|---|---|---|---|
| 1 | GFTLNSYGIS | VIYSDGRRTFYGDEVK | GRKGGTFDS | n.d. / n.d. / n.d. | n.d. | 2 of 9 (4.22) |
| 2 | GFTDNSQGIS | VIYSDGRRHFYGDSVK | GRAAGTFDS | 3.18 / n.d. / n.d. | 3.18 | 2 of 9 (3.96) |
| 3 | GDTLNSYGIS | VIYSDGRRTEYGDSVK | GRAAGKFDS | 1.34 / 1.52 / 2.04 | 1.64 | 1 of 9 (3.90) |
| 4 | KFTLNSYSIS | VIYSDGIRTFYGDSVK | GRAAGTFDS | n.d. / n.d. / n.d. | n.d. | 2 of 9 (3.21) |
| 5 | GFTLNSYGIS | VIYSDGRRTFYVDSVK | GRTAGLFDS | 3.58 / n.d. / n.d. | 3.58 | 0 of 9 |
| 6 | GFTLNSYGIS | VIYYDGRRTFYGDSVK | GRAAGTFDS | 2.67 / 1.62 / 1.32 | 1.87 | 1 of 9 (4.29) |
| 7 | GFTLNSYCIS | VSYSDGRRTFHGDSVK | GRAAGTFDS | n.d. / n.d. / n.d. | n.d. | 1 of 9 (2.75) |
| 8 | GFKLNSYGIS | VIYSDGRRTFYGDSVK | GRAAGTFIS | 2.87 / 2.18 / 2.49 | 2.51 | 1 of 9 (4.17) |
| 9 | GFTLNSYGIK | VIYSDGRRTFSGDSVK | GRAAGTFCS | n.d. / n.d. / n.d. | n.d. | 2 of 9 (3.14) |
| 10 | GFTLNVYGIS | AIYSDGRRTFYGDSVK | GRAAGTFDQ | n.d. / 5.19 / n.d. | 5.19 | 1 of 9 (4.81) |
| 11 | GFTLNSYGIS | VIYSDARRTVYGASVK | GRAAGTFDS | 4.29 / n.d. / n.d. | 4.29 | 0 of 9 |
| 12 | GFTHKSYGIS | VIYSDGRRTFYGDSVK | GRAAGHFDS | n.d. / n.d. / n.d. | n.d. | 0 of 9 |
| 13 | GFTLNTLGIS | VIYSKGRRTFYGDSVK | GRAAGTFDS | 4.07 / 3.86 / 5.88 | 4.60 | 7 of 9 (4.57) |
| 14 | GVTLNSYGIS | VLYSDGRRAFYGDSVK | GRAAGTFDS | 2.62 / 2.69 / 3.18 | 2.83 | 1 of 9 (5.82) |
| 15 | GFTYNSYGVS | VIYSDGRRTFYGDSWK | GRAAGTFDS | n.d. / 4.33 / n.d. | 4.33 | 1 of 9 (3.40) |
| 16 | GFTLNSYGIS | VIYSDGRRTFYGDSSK | GRNAGTFDS | 1.82 / 1.80 / 1.27 | 1.63 | 2 of 9 (3.75) |
| 17 | GFTLNSYGIG | VIYSDGRRTFYGDSVE | GRAAGTNDS | n.d. / n.d. / n.d. | n.d. | 0 of 9 |
| 18 | GFTLNSYLIS | VIYSDGRRTFYGDSVK | GRAGGTGDS | 4.92 / n.d. / n.d. | 4.92 | 3 of 9 (4.70) |
| 19 | GFTLNSYGIS | VIYSDGRRTFYRDSVK | GRAAGTFDN | 2.72 / 2.09 / 2.33 | 2.38 | 1 of 9 (2.70) |
| 20 | GFTLNGYGIS | VIYSDGRRTFWGDSVK | GRWAGTFDS | 3.62 / n.d. / n.d. | 3.62 | 0 of 9 |
| 21 | GFTLPSYGQS | VIYSDGRRTFYGDSVK | GRAAGTFDS | n.d. / n.d. / n.d. | n.d. | 0 of 9 |
| 22 | GFTLNSYGPS | VIYSDGSRTFYGQSVK | GRAAGTFDS | n.d. / n.d. / n.d. | n.d. | 0 of 9 |
| 23 | GFTLNSYGIT | VIYSCGRRTFYGDSVK | GRAAGTQDS | n.d. / n.d. / n.d. | n.d. | 0 of 9 |
| 24 | GFTLNSKGIS | VIYSDGRRTFIGDSVK | GRAAGTFMS | n.d. / 2.44 / n.d. | 2.44 | 0 of 9 |
| 25 | GFTLNDYGIF | VIYSDGRRTFYRDSVK | GRAAGTFDS | n.d. / n.d. / n.d. | n.d. | 3 of 9 (3.94) |
| 26 | GFTLNSYGIS | VIYTDGRYTFYGDSVK | GRAAGTFDA | n.d. / n.d. / 5.36 | 5.36 | 2 of 9 (3.32) |
| 27 | GFTLNSYGHS | VIYSDGRFTFYGDAVK | GRAAGTFDS | 5.35 / 4.12 / n.d. | 4.73 | 0 of 9 |
| 28 | GFTLNSYGIS | VIYSLGRRTFYGDSVK | GRAGGTWDS | n.d. / n.d. / n.d. | n.d. | 2 of 9 (4.27) |
| 29 | GFTLPSYGIP | VIYSDGRRTFQGDSVK | GRAAGTFDS | n.d. / n.d. / n.d. | n.d. | 0 of 9 |
| 30 | AFTLNSYGIS | VIYSDGRRTFYGDSVH | FRAAGTFDS | n.d. / n.d. / n.d. | n.d. | 0 of 9 |
| 31 | GFFLNSYGIS | VIYSDARRTFRGDSVK | GRAAGTFDS | n.d. / n.d. / n.d. | n.d. | 1 of 9 (2.08) |
| 32 | GFTLNSYGIS | VIYSDRRMTFYGDSVK | TRAAGTFDS | n.d. / n.d. / 5.63 | 5.63 | 0 of 9 |
| 33 | GFTLNSYGIS | VIYSDHRRTFYGDSVK | GRFAGTRDS | n.d. / 3.08 / 5.10 | 4.09 | 3 of 9 (4.84) |
| 34 | GFTLNSYGYS | LIYSDMRRTFYGDSVK | GRAAGTFDS | n.d. / n.d. / n.d. | n.d. | 1 of 9 (2.59) |
| 35 | GWTLNSYGLS | VIYSDGRRTFYGDSVL | GRAAGTFDS | n.d. / 5.22 / 4.29 | 4.76 | 5 of 9 (3.91) |
| 36 | GFDLNSYGIS | VIYSDGRRTFYGDMVK | GRAAGTFVS | 0.70 / 0.92 / 0.85 | 0.82 | 0 of 9 |
| 37 | GETYNSYGIS | VIYMDGRRTFYGDSVK | GRAAGTFDS | n.d. / n.d. / n.d. | n.d. | 2 of 9 (3.69) |
| 38 | GFELNSYGIS | VIYSDPRRTHYGDSVK | GRAAGTFDS | n.d. / n.d. / n.d. | n.d. | 0 of 9 |
| 39 | GFRMNSYGIS | VIYSDGRRTFYGDSVK | GRDAGTFDS | n.d. / n.d. / n.d. | n.d. | 0 of 9 |
| 40 | GFTLMSGGIS | VIYSDGRRTTYGDSVK | GRAAGTFDS | n.d. / n.d. / n.d. | n.d. | 5 of 9 (4.33) |
| 41 | GFSLNSYGIT | VIYSDGRRTFYGDSVK | GRAAGTLDS | n.d. / 3.08 / n.d. | 3.08 | 0 of 9 |
| 42 | GFTLNSYGIS | AIYSDGRRHFYGDSVK | GRAAGTFNS | n.d. / n.d. / n.d. | n.d. | 0 of 9 |
| 43 | GFMLNSYGIS | VIKSDGRRTFYGDSVK | GRAAGTFDS | n.d. / n.d. / n.d. | n.d. | 2 of 9 (3.82) |
| 44 | GFTLNSHGIS | VITSDGRITFYGDSVK | GRAAGTFDS | n.d. / n.d. / n.d. | n.d. | 0 of 9 |
| 45 | GETLNSMGIW | VIYSDGRRTFYGDSVK | GRAAGTFDS | 1.49 / 1.71 / 1.95 | 1.72 | 1 of 9 (4.57) |

Picked from the list: the 3 lowest averages where every replicate gave a value.

{"CDR-H1": "GFDLNSYGIS", "CDR-H2": "VIYSDGRRTFYGDMVK", "CDR-H3": "GRAAGTFVS", "replicates, log10 nM": "0.70 / 0.92 / 0.85", "mean log10 Kd (nM)": "0.82", "empty controls": "0 of 9"}
{"CDR-H1": "GFTLNSYGIS", "CDR-H2": "VIYSDGRRTFYGDSSK", "CDR-H3": "GRNAGTFDS", "replicates, log10 nM": "1.82 / 1.80 / 1.27", "mean log10 Kd (nM)": "1.63", "empty controls": "2 of 9 (3.75)"}
{"CDR-H1": "GDTLNSYGIS", "CDR-H2": "VIYSDGRRTEYGDSVK", "CDR-H3": "GRAAGKFDS", "replicates, log10 nM": "1.34 / 1.52 / 2.04", "mean log10 Kd (nM)": "1.64", "empty controls": "1 of 9 (3.90)"}

As a blank, each scFv also met three strains without target: over library AAYL49, 15% of these pairings were detected, typically at 4.06 and seldom below 2.83. The control count says in how many pairings with the empty strains this scFv gave a signal, with their mean in brackets. For reference, the parent read 0.65 as the reference entry and 4.11 (one replicate of three) as a member of this library.

Data: MIT Lincoln Laboratory AlphaSeq set, Engelhart et al. 2022, doi:10.1038/s41597-022-01779-4, as distributed in FLAb.